Kd data for one substance are collected here from article PMC10999750.

Common to all, as to experiment: fluorescence polarisation; FITC-tagged peptide ('2 nm' [sic]) with importin two-fold serially diluted from 4.5 µM across 23 wells, 200 µl, GST Buffer A (50 mM Tris, 125 mM NaCl); three independent experiments
Experiment [1] has as its target AAV 09YN Cap-BR-mMAJOR (FITC labelled peptide, residues 117-167, major site mutant).
Experiment [2] concerns the target AAV 09YN Cap-BR-mMINOR (FITC labelled peptide, residues 117-167, minor site mutant).
Experiment [3] has as its target AAV 09YN Cap-BR-mMINOR+mMAJOR (FITC labelled peptide, residues 117-167, minor and major site mutant).

For orientation: Kd means a measure of binding affinity in units of concentration. A higher Kd goes with weaker binding. Turning to “Mouse importin α2 lacking the IBB domain (mImpα2DIBB) (from UniProt P52293 70-529) (domain or fragment)”, the Kd in experiment [1] stood at 886 nM; in experiment [2], 1610 nM; in experiment [3], 8250 nM.
